System: lung cells into which EML4-ALK fusion gene was introduced, transplanted subcutaneously
Assay: Crizotinib treatment experiment using cancer-bearing mouse model
Type: in vivo
Settings: athymic mouse, 150 mg/kg orally for 14 consecutive days, vs methylcellulose control, n=3, P<0.05 Student's t-test

## C[C@@H](Oc1cc(-c2cnn(C3CCNCC3)c2)cnc1N)c1c(Cl)ccc(F)c1Cl [crizotinib]
  tumor volume (tumor growth): tumor growth was significantly suppressed

— patent US11814651B2, “Cell and utilization thereof” (FUJITA ACADEMY, priority 2017, dated 2023)
